Read-outs that look alike come from different tables or passages of the source.
Legend:
[1] = test system: scar-related genes (ccl2, ccr2, col1α2, col 3α1, emr1, IL-6, TGF-β1); assay: qRT-PCR of scar related gene transcripts in scar area (mouse hypertrophic scarring model); type: in vivo; conditions: 50 μg/kg intraperitoneal daily; PBS n=3, MMI n=6
[2] = test system: immunomodulatory and stem cells in the scar region; assay: FACS population analysis of immunomodulatory and stem cells in the scar region (mouse hypertrophic scarring model); type: in vivo; conditions: MMI-0300 treatment vs PBS
266 human kinases [3] = molecular target: 266 human kinases (Homo sapiens, UniProt P08069); type: biochemical; conditions: IGF-1R(h); 100 μM
From the text: (§1) Specifically, in these assays, a positively charged substrate is phosphorylated with a radiolabeled phosphate group from an ATP if the kinase is not inhibited by an inhibitor peptide. The positively charged substrate then is attracted to a negatively charged filter membrane, quantified with a scintillation counter, and compared to a 100% activity control.

By UniProt entry, the sequences of proteins in these tests, tags left out. Where a name states a change or a piece, a line headed by the entry shows the natural chain unless it says otherwise. Residues count along the entry.
UniProt Q9HCP0: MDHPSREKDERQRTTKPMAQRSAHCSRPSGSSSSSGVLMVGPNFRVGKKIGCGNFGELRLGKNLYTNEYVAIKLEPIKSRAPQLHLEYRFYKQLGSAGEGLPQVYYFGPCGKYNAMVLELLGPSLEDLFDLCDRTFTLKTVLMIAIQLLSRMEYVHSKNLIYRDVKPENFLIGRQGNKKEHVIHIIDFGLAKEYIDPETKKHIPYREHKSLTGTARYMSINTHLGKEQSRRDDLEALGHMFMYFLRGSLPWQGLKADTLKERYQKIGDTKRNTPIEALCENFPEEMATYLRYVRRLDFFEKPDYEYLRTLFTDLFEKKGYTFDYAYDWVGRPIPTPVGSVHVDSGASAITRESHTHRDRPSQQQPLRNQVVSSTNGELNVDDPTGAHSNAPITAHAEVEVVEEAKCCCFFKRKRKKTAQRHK
UniProt Q9NQU5: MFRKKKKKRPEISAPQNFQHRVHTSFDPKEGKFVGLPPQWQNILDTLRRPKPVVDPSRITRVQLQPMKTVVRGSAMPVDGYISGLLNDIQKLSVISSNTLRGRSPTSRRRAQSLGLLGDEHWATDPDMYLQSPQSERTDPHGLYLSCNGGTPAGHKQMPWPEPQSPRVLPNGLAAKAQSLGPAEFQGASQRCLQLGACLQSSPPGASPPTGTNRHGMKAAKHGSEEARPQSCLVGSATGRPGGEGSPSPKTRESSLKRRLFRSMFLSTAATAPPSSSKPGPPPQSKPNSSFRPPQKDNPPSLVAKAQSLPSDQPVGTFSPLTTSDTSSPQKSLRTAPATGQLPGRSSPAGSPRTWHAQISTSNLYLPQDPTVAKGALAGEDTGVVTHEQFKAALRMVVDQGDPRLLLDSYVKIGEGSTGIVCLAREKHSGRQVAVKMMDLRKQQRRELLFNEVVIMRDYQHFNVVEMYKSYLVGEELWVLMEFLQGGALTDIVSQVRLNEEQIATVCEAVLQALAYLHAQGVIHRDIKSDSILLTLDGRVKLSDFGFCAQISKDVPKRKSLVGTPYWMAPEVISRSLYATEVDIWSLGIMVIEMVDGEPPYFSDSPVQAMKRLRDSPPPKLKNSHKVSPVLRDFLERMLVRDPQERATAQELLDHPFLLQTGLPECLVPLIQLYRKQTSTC
UniProt O75914, whole entry: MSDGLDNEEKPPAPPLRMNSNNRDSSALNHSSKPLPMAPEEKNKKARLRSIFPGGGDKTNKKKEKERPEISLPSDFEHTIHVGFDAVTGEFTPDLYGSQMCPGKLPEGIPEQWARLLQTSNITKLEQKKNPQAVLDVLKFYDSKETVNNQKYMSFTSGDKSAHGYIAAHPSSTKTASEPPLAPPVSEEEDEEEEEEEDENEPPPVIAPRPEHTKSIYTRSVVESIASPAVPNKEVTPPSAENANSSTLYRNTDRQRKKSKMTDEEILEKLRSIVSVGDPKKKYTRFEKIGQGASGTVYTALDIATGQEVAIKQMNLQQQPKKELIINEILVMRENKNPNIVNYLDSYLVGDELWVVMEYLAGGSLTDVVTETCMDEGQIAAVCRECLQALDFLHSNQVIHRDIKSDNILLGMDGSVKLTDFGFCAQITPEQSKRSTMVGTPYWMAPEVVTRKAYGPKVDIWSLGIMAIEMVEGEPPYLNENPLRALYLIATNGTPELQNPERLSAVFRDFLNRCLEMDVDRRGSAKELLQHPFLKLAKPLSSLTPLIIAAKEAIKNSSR
UniProt P78368: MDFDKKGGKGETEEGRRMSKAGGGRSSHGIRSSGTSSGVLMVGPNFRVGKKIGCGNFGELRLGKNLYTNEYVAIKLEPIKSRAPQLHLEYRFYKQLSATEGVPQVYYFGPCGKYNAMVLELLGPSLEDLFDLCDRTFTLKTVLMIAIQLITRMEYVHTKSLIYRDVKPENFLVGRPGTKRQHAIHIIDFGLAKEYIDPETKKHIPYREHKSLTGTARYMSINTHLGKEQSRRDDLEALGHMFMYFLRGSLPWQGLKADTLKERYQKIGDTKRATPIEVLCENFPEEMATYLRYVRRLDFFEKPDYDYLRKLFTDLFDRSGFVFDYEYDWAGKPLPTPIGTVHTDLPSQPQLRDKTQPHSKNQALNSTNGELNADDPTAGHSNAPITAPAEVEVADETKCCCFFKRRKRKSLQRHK
UniProt Q9Y6M4: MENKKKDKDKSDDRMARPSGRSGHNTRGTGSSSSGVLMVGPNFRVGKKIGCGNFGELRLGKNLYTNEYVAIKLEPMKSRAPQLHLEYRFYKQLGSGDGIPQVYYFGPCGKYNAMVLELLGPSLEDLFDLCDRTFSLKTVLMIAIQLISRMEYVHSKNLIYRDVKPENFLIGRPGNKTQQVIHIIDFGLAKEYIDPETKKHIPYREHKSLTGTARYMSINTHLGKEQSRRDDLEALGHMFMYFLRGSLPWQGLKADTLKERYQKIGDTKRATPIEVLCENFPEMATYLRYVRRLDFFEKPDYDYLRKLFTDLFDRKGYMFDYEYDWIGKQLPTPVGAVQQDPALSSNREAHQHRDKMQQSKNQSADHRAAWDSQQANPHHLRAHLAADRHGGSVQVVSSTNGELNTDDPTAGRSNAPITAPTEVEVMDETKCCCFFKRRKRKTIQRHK
UniProt P11362, 22-822 V561M: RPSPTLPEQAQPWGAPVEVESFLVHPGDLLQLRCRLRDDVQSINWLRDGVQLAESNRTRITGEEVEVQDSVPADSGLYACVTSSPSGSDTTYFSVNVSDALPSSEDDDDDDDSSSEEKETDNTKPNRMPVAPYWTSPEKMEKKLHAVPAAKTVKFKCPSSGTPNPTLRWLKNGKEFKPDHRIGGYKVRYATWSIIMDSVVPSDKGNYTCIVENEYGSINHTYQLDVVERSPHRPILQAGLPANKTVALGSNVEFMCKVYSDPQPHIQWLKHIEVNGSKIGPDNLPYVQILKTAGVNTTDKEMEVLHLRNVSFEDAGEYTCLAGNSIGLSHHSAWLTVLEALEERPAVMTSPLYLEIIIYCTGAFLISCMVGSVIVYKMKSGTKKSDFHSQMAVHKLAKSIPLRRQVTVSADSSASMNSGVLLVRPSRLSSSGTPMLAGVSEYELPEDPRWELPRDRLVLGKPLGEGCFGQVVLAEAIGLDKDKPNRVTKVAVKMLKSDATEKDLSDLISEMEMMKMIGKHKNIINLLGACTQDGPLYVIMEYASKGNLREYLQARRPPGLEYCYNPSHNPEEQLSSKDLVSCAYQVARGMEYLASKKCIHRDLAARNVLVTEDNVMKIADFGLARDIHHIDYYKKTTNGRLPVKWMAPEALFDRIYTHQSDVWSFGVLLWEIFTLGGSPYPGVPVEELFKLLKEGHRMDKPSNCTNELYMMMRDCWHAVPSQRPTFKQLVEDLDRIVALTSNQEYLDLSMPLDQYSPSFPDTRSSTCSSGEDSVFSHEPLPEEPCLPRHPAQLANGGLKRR

266 human kinases [4] = molecular target: 266 human kinases (Homo sapiens, UniProt P49760); type: biochemical; conditions: CLK2(h); 100 μM
From the text: as §1

266 human kinases [5] = molecular target: 266 human kinases (Homo sapiens, UniProt P53350); type: biochemical; conditions: Plk1(h); 100 μM
From the text: as §1

266 human kinases [6] = molecular target: 266 human kinases (Homo sapiens, UniProt Q9HCP0); type: biochemical; conditions: CK1γ1(h); 100 μM
From the text: as §1

266 human kinases [7] = molecular target: 266 human kinases (Homo sapiens, UniProt P21802, N549H); type: biochemical; conditions: FGFR2(N549H)(h); 100 μM
From the text: as §1

266 human kinases [8] = molecular target: 266 human kinases (Homo sapiens, UniProt P34947); type: biochemical; conditions: GRK5(h); 100 μM
From the text: as §1

266 human kinases [9] = molecular target: 266 human kinases (Homo sapiens, UniProt Q9NQU5); type: biochemical; conditions: PAK6(h); 100 μM
From the text: as §1

266 human kinases [10] = molecular target: 266 human kinases (Homo sapiens, UniProt O75914); type: biochemical; conditions: PAK3(h); 100 μM
From the text: as §1

266 human kinases [11] = type: biochemical; conditions: 100 μM
From the text: as §1

266 human kinases [12] = molecular target: 266 human kinases (Homo sapiens, UniProt P78368); type: biochemical; conditions: CK1γ2(h); 100 μM
From the text: as §1

266 human kinases [13] = molecular target: 266 human kinases (Homo sapiens, UniProt Q9Y6M4); type: biochemical; conditions: CK1γ3(h); 100 μM
From the text: as §1

266 human kinases [14] = molecular target: 266 human kinases (Homo sapiens, UniProt P19784); type: biochemical; conditions: CK2α2(h); 100 μM
From the text: as §1

266 human kinases [15] = molecular target: T1, 266 human kinases (Homo sapiens, UniProt O14733); type: biochemical; conditions: MKK7β(h); 100 μM
T1 sequence (O14733 1-419): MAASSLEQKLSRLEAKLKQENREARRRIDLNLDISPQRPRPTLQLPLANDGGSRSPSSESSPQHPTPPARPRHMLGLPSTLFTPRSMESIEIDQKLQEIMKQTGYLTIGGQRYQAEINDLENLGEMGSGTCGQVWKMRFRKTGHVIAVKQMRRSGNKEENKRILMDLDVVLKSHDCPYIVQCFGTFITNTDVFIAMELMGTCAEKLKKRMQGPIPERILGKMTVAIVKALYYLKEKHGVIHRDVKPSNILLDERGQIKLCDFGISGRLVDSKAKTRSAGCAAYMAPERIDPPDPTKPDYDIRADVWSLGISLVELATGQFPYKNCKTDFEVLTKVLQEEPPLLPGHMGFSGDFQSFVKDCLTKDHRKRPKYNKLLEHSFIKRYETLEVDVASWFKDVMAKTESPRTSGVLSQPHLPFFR
From the text: as §1

266 human kinases [16] = molecular target: 266 human kinases (Homo sapiens, UniProt P11362, V561M); type: biochemical; conditions: FGFR1(V561M)(h); 100 μM
From the text: as §1

Fgr (h) = Fgr (h) (Homo sapiens, UniProt P09769); conditions: 100 μM
From the text: as §1

Sequence	expression of ccl2 and TGF-β1 in the scar area (qRT-PCR) vs control mice [1]	cell population in scar areas (FACS), young and old mice [2]	% activity (266 human kinases [3]) [%]	% activity (266 human kinases [4]) [%]	% activity (266 human kinases [5]) [%]	% activity (266 human kinases [6]) [%]	% activity (266 human kinases [7]) [%]	% activity (266 human kinases [8]) [%]	% activity (266 human kinases [9]) [%]	% activity (266 human kinases [10]) [%]	% activity (266 human kinases [11]; JNK1α1(h)) [%]	% activity (266 human kinases [11]; MAPK1(h)) [%]	% activity (266 human kinases [12]) [%]	% activity (266 human kinases [13]) [%]	% activity (266 human kinases [14]) [%]	% activity (266 human kinases [15]) [%]	% activity (266 human kinases [16]) [%]	% activity (Fgr (h)) [%]
FAKLAARLYRKALARQLGVAA [MMI-0300]	considerable modulation in the expression of ccl2 and TGF-β1	decreases in macrophages, and other monocyte-related and progenitor stem cells	–	–	–	–	–	–	–	–	–	–	–	–	–	–	–	–
HRRIKAWLKKIKALARQLGVAA (mammal) [MMI-0500]	–	–	117	116	104	109	105	116	107	102	109	102	119	114	103	102	113	109

From patent US20140072613A1, “Compositions and Methods for Treating Cutaneous Scarring” (priority 2012, published 2014)
